Cmax and C24 data for one molecule are collected here from US9155706B2, “Pharmaceutical composition” (Novartis AG, priority 2010, dated 2015).

Usually Cmax stands for the maximum level reached in the sampled fluid or tissue.

A short description of the data set: Single-dose (Day 1) pharmacokinetics of Compound tablets, first-time-in-human study. The conditions noted are these: 0.125 mg, single dose Day 1, oral tablets, fasting, individual values.

In the case of `CC(=O)Nc1cccc(-n2c(=O)n(C3CC3)c(=O)c3c(Nc4ccc(I)cc4F)n(C)c(=O)c(C)c32)c1` [Compound, N-{3-[3-cyclopropyl-5-(2-fluoro-4-iodo-phenylamino)-6,8-dimethyl-2,4,7-trioxo-3,4,6,7-tetrahydro-2H-pyrido[4,3-d]pyrimidin-1-yl]phenyl}acetamide], the C24 is on record as 0, 0 ng/mL. The same molecule returned a Cmax (human, plasma, po, Cmax) of 0.62 ng/mL.
